Results: ChEMBL document CHEMBL4270507, “Covalent binding design strategy: A prospective method for discovery of potent targeted anticancer agents” (Eur J Med Chem, 2017)

By UniProt entry, the sequences of proteins in these tests, tags left out. Where a name states a change or a piece, a line headed by the entry shows the natural chain unless it says otherwise.
UniProt Q06187: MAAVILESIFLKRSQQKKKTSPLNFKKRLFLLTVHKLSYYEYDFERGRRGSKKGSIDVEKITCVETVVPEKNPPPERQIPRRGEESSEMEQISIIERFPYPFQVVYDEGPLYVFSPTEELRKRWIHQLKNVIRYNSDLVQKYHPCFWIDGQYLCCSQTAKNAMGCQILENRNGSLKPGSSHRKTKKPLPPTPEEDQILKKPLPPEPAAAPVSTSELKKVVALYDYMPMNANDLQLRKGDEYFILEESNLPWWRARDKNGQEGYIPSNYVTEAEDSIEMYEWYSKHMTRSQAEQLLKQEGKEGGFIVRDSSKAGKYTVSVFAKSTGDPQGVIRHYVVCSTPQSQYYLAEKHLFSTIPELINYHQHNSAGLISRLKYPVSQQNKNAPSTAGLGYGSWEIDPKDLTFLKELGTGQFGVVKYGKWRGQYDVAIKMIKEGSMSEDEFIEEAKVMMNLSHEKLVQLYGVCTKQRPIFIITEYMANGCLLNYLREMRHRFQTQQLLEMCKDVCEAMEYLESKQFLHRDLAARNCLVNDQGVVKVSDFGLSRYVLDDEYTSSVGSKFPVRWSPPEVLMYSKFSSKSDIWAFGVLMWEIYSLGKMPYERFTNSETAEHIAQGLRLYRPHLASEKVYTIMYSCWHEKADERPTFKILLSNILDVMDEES

Legend:
[1] = biological target: T1, Tyrosine-protein kinase BTK (Homo sapiens, UniProt Q06187); assay: Inhibition of BTK (unknown origin)
[2] = biological target: T1, Tyrosine-protein kinase BTK; assay: Inhibition of BTK in human Ramos cells assessed as reduction in PLCgamma2 phosphorylation at Tyr759 residue by chemiluminescence based assay; type: cell-based

C=CS(=O)(=O)N1CCCC(n2nc(-c3ccc(Oc4ccccc4)cc3)c3c(N)ncnc32)C1 (configuration not stated)
IC50 [1]: 0.58 nM

C=CC(=O)N1CCc2ccc(-n3c(=O)ccc4cnc5ccc(-c6cnn(C)c6)cc5c43)cc21
EC50 [2]: 318 nM
